Results reported in ChEMBL document CHEMBL4396874, “Consideration of Binding Kinetics in the Design of Stapled Peptide Mimics of the Disordered Proteins Eukaryotic Translation Initiation Factor 4E-Binding Protein 1 and Eukaryotic Translation Initiation Factor 4G” (J Med Chem, 2019).

Sequences of proteins named here, by UniProt entry; tags and fusion partners are left off.
UniProt P06730, whole entry: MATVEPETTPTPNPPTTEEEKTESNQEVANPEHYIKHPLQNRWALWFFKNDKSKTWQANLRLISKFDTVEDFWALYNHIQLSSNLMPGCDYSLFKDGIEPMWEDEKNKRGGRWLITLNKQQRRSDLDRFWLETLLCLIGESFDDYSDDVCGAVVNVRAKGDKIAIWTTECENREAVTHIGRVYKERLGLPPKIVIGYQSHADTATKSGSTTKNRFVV

Biological target: Eukaryotic translation initiation factor 4E (Homo sapiens, UniProt P06730)
Test: Binding affinity to N-terminal 10His-tagged m7GDP-bound recombinant human eIF4E expressed in Escherichia coli BL21 (DE3) cells assessed as binding constant at 25 degreeC by surface plasmon resonance analysis
How it was run: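 m7GDP-bound His10-eIF4E captured to ~600 RU on a Ni-activated HisCap chip. EDTA regeneration between cycles. Kd from global 1:1 fit; triplicate experiments.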

CC(=O)N[C@@H](CCCCN)C(=O)N[C@@H](CCCCN)C(=O)N[C@@H](CCCNC(=N)N)C(=O)N[C@@H](Cc1ccc(O)cc1)C(=O)N[C@@H](CO)C(=O)N[C@@H](CCCNC(=N)N)C(=O)N[C@@]1(C)CCC/C=C\CCC[C@@](C)(C(=O)N[C@@H](CC(C)C)C(N)=O)NC(=O)[C@H](CC(C)C)NC(=O)[C@H](CC(C)C)NC(=O)[C@H](CCC(N)=O)NC1=O
K: 6.3 nM
